Values of other authors in US7022306B1, “Process for the production of hydrogen” (UOP LLC, priority 2003, dated 2006).

Tested on: Rat

In the case of Butanol, the “Toxicity LD50 (mg/kg) Oral-Rat” value is given as 790 mg/kg.
